From patent US10030027B2, “Soluble guanylate cyclase stimulators” (MERCK SHARP & DOHME CORP., priority 2015, dated 2018)

What was measured:
[1] = target: sGC α1/β1 heterodimer (Homo sapiens (Human), UniProt Q02108+Q02153); assay: Cell-based sGC functional assay (cyclic GMP assay for sGC activator: CASA assay); details: read-out: IP; inflection point, 4P fit; CHO-K1/sGC cells
[2] = target: human recombinant sGC enzyme (Homo sapiens (Human), UniProt Q02108+Q02153); assay: Size Exclusion Chromatography (SEC) competition binding assay using [3H] Ex-77B as the radioligand; details: [3H] Ex-77B radioligand, 24 hours at 37° C.

| SMILES | EC50 [1] [nM] | Ki [2] [nM] |
| --- | --- | --- |
| CC1(c2nc(C3CC3C(=O)O)cs2)C(=O)Nc2nc(-c3nn(CCC(F)(F)C(F)(F)F)c4ncccc34)nc(N)c21 (stereo not shown) | 733 | 0.755 |
| CC1(C2CCC(CCC(=O)O)CC2)C(=O)Nc2nc(-c3nn(Cc4cccc(F)c4)c4cc(Cl)ccc34)nc(N)c21 (single isomer, unassigned) [263AA] | 110 | 0.235 |
